Sequences of proteins named here, by UniProt entry; tags and fusion partners are left off. A change or cut given only in a name is not applied to a line headed by its entry. Residues count along the entry.
UniProt P00533, whole entry, looked up: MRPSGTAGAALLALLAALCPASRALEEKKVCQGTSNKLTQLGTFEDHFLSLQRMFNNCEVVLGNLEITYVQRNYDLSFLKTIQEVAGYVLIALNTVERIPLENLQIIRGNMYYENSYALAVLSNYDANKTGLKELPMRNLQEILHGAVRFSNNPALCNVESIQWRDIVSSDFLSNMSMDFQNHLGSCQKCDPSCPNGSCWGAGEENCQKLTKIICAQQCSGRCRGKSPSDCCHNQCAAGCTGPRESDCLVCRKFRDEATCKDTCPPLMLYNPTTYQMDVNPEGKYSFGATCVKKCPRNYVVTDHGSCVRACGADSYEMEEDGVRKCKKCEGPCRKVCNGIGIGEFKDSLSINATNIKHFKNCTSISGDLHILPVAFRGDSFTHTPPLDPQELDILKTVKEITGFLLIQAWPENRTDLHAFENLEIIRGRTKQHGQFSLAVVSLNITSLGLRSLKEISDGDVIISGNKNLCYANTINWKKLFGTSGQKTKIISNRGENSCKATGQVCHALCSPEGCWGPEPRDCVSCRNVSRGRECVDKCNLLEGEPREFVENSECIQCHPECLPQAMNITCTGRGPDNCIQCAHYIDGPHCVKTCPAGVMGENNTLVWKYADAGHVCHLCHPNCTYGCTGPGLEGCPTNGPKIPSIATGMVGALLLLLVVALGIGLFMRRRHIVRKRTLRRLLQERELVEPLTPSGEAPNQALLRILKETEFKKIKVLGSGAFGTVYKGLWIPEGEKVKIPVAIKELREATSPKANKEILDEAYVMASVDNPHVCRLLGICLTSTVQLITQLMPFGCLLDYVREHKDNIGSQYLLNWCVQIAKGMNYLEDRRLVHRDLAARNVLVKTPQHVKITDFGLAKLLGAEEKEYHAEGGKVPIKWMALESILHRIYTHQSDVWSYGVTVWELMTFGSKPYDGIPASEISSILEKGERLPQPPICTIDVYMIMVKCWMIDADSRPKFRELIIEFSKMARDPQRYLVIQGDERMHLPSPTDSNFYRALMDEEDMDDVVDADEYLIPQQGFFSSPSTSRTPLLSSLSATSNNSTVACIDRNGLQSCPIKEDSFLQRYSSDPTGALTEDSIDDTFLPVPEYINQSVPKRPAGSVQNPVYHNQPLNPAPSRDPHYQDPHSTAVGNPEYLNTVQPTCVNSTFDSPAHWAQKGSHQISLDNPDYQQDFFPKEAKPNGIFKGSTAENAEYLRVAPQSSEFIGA
UniProt P00533, whole entry T790M/L858R, looked up: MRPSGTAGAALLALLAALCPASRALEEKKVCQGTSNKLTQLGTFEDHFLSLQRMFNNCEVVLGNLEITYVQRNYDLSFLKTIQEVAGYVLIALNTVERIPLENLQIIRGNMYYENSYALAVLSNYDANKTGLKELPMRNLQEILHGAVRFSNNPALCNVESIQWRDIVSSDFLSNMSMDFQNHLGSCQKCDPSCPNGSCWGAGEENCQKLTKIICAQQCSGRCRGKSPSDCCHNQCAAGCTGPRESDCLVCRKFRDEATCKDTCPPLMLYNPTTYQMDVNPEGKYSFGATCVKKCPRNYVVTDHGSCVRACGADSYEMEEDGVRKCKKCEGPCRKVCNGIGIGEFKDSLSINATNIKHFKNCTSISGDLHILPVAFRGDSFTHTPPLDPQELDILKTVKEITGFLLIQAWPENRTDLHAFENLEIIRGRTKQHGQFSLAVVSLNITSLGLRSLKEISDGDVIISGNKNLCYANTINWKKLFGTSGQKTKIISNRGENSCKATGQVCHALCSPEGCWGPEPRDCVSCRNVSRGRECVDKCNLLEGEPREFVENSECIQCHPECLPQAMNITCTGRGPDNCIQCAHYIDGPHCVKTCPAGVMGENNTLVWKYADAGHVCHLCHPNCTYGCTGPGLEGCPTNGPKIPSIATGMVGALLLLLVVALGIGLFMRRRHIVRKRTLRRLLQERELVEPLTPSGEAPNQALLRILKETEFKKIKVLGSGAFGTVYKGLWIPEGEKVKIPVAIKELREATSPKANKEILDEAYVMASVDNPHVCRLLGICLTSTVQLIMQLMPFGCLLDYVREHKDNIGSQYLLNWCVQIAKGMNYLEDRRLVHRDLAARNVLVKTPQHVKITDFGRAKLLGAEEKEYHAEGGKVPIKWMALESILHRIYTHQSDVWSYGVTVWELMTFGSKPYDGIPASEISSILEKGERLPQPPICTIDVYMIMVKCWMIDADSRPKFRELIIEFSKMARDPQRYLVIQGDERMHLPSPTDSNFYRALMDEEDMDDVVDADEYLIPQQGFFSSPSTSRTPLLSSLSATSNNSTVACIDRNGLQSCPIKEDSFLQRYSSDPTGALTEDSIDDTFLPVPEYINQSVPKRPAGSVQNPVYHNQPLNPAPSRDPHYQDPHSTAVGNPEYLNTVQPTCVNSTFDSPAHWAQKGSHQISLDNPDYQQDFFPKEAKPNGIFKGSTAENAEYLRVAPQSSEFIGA
UniProt P08069, 959-1367 limits assumed: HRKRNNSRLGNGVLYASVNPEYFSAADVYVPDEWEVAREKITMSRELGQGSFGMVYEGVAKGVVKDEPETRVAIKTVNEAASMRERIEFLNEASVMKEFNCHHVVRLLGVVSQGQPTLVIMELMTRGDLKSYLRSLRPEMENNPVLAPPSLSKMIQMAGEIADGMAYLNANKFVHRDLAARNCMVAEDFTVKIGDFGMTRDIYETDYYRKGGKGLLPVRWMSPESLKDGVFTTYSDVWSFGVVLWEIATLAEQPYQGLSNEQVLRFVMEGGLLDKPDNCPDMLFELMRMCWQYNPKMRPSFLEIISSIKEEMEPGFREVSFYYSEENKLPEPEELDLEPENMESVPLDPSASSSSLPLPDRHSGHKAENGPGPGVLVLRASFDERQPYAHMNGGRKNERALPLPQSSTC
UniProt P06213, 989-1382 limits assumed: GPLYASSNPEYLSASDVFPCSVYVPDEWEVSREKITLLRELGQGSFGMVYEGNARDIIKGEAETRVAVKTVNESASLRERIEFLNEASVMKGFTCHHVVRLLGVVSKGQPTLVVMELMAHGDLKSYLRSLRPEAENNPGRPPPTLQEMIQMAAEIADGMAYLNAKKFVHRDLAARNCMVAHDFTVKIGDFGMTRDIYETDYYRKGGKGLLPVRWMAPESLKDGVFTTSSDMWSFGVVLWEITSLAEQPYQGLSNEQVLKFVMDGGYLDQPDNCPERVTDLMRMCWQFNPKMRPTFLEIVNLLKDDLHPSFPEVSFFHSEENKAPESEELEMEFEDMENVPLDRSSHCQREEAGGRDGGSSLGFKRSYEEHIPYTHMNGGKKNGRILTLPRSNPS

According to patent US10435388B2, “Selective inhibitors of clinically important mutants of the EGFR tyrosine kinase” (CS PHARMATECH LIMITED, priority 2016, dated 2019):

Assays:
PC9 cells (SM) = assay: PC-9 growth inhibition assay (cell proliferation), Method B; settings: read-out: SM (PC9) IC50 nM, cellular proliferation, 72 h, several runs
H1975 cells (DM) = assay: H1975 inhibition assay (cell proliferation), Method B; format: cell-based; settings: read-out: DM (H1975) IC50 nM, cellular proliferation, 72 h, several runs
A431 cells (WT) = assay: A431 inhibition assay (cell proliferation), Method B; settings: read-out: WT (A431) IC50 nM, cellular proliferation, 72 h, several runs
[1] = biological target: p-EGFR in PC9 cells (Exon 19 deletion EGFR) (UniProt P00533); assay: Exon19 deletion EGFR (activating single mutant) PC-9 cellular autophosphorylation assay; settings: read-out: PC-9 IC50, 2 h treatment, ELISA
[2] = biological target: p-EGFR in A431 cells (wild type EGFR, EGF stimulated) (Homo sapiens, UniProt P00533); assay: Wild type EGFR A431 autophosphorylation inhibition assay (ELISA); settings: read-out: A431 IC50, cellular EGFR autophosphorylation, 2 h treatment, EGF stimulation 10 min
IGF-1R = IGF-1R (Homo sapiens, UniProt P08069); assay: IGF-1R inhibition assay (Caliper EZ Reader); settings: read-out: IC50 (nM) IGF-1R; enzyme assay
INSR = INSR (Homo sapiens, UniProt P06213); assay: INSR inhibition assay (Caliper EZ Reader); settings: read-out: IC50 (nM) INSR; enzyme assay
[3] = biological target: p-EGFR in H1975 cells (L858R/T790M double mutant EGFR) (UniProt P00533)

SMILES: C=CC(=O)Nc1cc(Nc2nccc(-n3nc(NCC)c4ncccc43)n2)c(OC)cc1N(C)CCN(C)C
- IC50 (PC9 cells (SM)): 0.81 nM
- IC50 (H1975 cells (DM)): 1.96 nM
- IC50 (A431 cells (WT)): 440 nM
- IC50 [1]: 0.00169 µM
- IC50 [2]: 0.0272 µM
- IC50 (IGF-1R): 869 nM
- IC50 (INSR): 851 nM
- IC50 [3]: 0.00305 µM
